Assay results reported in publication PMC3553236 (Biochemical pharmacology, 2012).

What was measured:
S1-M1-80 cells = details: IC50 S1-M1-80 / IC50 S1
CORL-23/R cells = details: IC50 CORL-23/R / IC50 CORL-23/P
MCF7-AdVp3000 cells = details: IC50 MCF7-AdVp3000 / IC50 MCF7
MCF7-FLV1000 cells = details: IC50 MCF7-FLV1000 / IC50 MCF7
[1] = test system: MRP1-HEK293 (ABCC1) cells; details: up to 5 µM
KBV-1 cells = details: IC50 KBV-1 / IC50 KB-3–1
[2] = test system: MDR19-HEK293 (ABCB1) cells; test: Cytotoxicity / MDR reversal assay, MDR19-HEK293; format: cell-based, human; details: up to 5 µM

CCCS(=O)(=O)Nc1ccc(F)c(C(=O)c2c[nH]c3ncc(-c4ccc(Cl)cc4)cc23)c1F [Vemurafenib]
R.F (resistance factor) (S1-M1-80 cells): 1.08 | R.F (resistance factor) (CORL-23/R cells): 1.00 | R.F (resistance factor) (MCF7-AdVp3000 cells): 1.31 | R.F (resistance factor) (MCF7-FLV1000 cells): 1.10 | effect on ABCC1-mediated etoposide resistance [1]: no significant effect | R.F (resistance factor) (KBV-1 cells): 1.15 | effect on ABCB1-mediated doxorubicin resistance [2]: no significant effect
